Chains of the proteins cited; added tags and fusions are not shown.
UniProt P09619, whole entry: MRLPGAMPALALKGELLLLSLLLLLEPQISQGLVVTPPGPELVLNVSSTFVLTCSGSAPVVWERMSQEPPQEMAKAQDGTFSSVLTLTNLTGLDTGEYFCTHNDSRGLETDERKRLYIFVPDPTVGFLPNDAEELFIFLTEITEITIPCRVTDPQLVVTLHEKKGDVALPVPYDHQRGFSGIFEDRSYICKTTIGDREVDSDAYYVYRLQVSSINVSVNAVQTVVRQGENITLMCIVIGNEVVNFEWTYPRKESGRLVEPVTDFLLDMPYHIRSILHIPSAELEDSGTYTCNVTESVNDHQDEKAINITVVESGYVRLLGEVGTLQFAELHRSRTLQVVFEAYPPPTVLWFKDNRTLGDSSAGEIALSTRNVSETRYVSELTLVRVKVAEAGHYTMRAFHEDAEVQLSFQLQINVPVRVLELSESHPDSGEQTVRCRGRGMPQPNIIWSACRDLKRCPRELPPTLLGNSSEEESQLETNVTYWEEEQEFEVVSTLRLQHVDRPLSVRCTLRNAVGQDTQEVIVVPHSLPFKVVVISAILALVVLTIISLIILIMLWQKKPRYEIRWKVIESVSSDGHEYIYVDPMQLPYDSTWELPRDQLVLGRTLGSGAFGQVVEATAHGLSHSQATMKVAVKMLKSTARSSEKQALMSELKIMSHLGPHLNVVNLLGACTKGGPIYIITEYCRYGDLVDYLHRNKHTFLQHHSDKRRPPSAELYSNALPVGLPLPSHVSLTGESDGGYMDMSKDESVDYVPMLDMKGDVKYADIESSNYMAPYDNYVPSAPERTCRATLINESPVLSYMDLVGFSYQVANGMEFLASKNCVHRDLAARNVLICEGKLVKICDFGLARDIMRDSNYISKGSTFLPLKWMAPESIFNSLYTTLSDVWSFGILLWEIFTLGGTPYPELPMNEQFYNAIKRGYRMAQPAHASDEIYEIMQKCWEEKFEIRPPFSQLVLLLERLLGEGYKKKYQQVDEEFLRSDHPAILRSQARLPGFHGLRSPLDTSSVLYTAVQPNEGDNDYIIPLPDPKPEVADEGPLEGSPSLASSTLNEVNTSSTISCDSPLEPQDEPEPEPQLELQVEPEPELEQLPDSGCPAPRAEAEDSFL

According to ChEMBL document CHEMBL1156263, “Single agents with designed combination chemotherapy potential: synthesis and evaluation of substituted pyrimido[4,5-b]indoles as receptor tyrosine kinase and thymidylate synthase inhibitors and as antitumor agents” (J Med Chem, 2010):

Target: Platelet-derived growth factor receptor beta (Homo sapiens, UniProt P09619)
Assay: Inhibition of PDGFRbeta in human SF539 cells by phosphotyrosine cell-based ELISA
Design: species or system SF-539

Question: Which IC50 does the source give for `CN(C)c1ccc(/C=C2\C(=O)Nc3ccccc32)cc1` here?
Answer: 3.75 µM
